Tested on: Melanoderm (MatTek MEL-300-B) tissue, epidermal keratinocytes (NHEK) and melanocytes (NHM)
Experiment: Melanoderm system: quantification of light (alkali-soluble) and dark (alkali-insoluble) melanin
Type: cell-based, human
Conditions: Table 1 concentrations
Protocol: In these examples, evaluation of the ability of various agents, individually and in combination, to influence levels of dark and light melanin was tested using the commercially available Melanoderm™ system.
The MelanoDerm™ MatTeks system consists of normal, human-derived epidermal keratinocytes (NHEK) and melanocytes (NHM) which have been cultured to form a multilayered, highly differentiated model of the human epidermis. The NHM within co-cultures undergo spontaneous melanogenesis leading to tissues of varying levels of pigmentation. The tissues are produced using serum free medium without artificial stimulators of melanogenesis such as TPA and IBMX. The cultures are grown on cell culture inserts at the air-liquid interface, allowing for simulated topical application of agents to be tested. Introduction of agents into the medium simulates systemic application. Thus, the model provides a useful in vitro means to evaluate agents designed to modulate skin pigmentation.
On delivery, the melanoderms (MatTek MEL-300-B) were placed onto metal ring supports in a 6 well plate containing 5 ml of pre-warmed maintenance media (of EPI-100-MM-PRF), using aseptic technique as per MatTek's protocol. Incubation was carried out overnight at 37° C. and 4% CO2 to allow the melanoderms to recover and equilibrate fully. Once placed under these conditions the MEL-300 tissue, undergo melanogenesis and differentiation.
Treatment was initiated on the following morning. Agents to be tested were dissolved in appropriate solvents and added to warmed media at final concentrations pre-assessed for melanocyte toxicity. Each time the media was changed, the spent media was aspirated from the melanoderms and reserved for testing for toxicity (Lactate Dehydrogenase (Promega)) and Interleukin-1 release (R&D systems) and replaced with a fresh dose of media plus test agents whether within the media of the melanoderm. Melanoderms were returned to the incubator. This treatment regime was repeated every 48 hours until a relative difference in darkening was observed between control and test agents.
On observation of differences in darkening, microscopic and macroscopic darkening were recorded photographically. Harvesting the tissue of the melanoderm involved cutting away the tissue from its plastic support and was followed by quantification of melanin present post-treatment versus untreated.
Melanoderm samples were cut from the plastic holders and the wet weight of tissue measured. 200 μl 1M NaOH/8M urea was added to the melanoderm sample the tissue homogenised in a microfuge tube. […]
Absolute melanin is calculated as the actual melanin quantity calculated from a previously determined light melanin standard curve: x=(y−0.003)/4.76423 (where x=concentration of melanin and y=optical density at 340 nm).

Substance: Vitamin A
- Ratio of light melanin (μg/g)/dark melanin (μg/g) (control 0.14): 0.16
- Light Melanin (alkali-soluble melanin, OD 340 nm, control 0.85): 1.09 µg/g
- Dark Melanin, change relative to control (value in brackets under Dark Melanin): (+10.4%)
- Light Melanin, change relative to control (value in brackets under Light Melanin): (+28.2%)

Source: patent publication US20080058281A1, “Skin Lightening Compositions Comprising Vitamines and Flavonoids” (priority 2004, published 2008)
